The entries are a selection whose mix differs from that of the whole data set. The source made the active and inactive calls.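 Rule for the calls: active = inhibition above the plate's mean compound inhibition plus 3 SD, computed per plate (cut at about 22% in these data); inactive = the rest.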
Assay: reduced calcium signal in Ga16 cells – fluorescence, CHO-Ga16 cells, counter-screen for TAAR1 agonist project (AID 651952);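 note: 0% = EC80 ATP with DMSO and 100% = DMSO wells without ATP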
Conditions: CHO-Ga16 ATP-induced calcium, Fluo-8 fluorescence; at 3 µM; stronger effect = higher value
How it was run: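 Test system: parental CHO cells stably overexpressing Gα16, lacking hTAAR1; Timing: 17–24 h seeding, dye 75 min 37 °C, 30 min RT; Signal: Fluo-8 calcium dye fluorescence, excitation 470–495 nm, emission 515–575 nm; Controls: DMSO-only and ATP-stimulated wells; Read-out: % inhibition of ATP-evoked calcium signal.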

Structure (SMILES) | inhibition
CP(=O)(OC12CC3CC(CC(C3)C1)C2)OC12CC3CC(CC(C3)C1)C2 | inactive: -0.18%

Source: PubChem BioAssay AID651952 (The Scripps Research Institute Molecular Screening Center, 2012)
